These results are taken from patent publication US20240216357A1 (SICHUAN HUIYU PHARMACEUTICAL CO., LTD., priority 2021, published 2024).

This experiment deals with NCI-H1417 cells. The experiment can be described thus: In vitro cell proliferation detection (CellTiter-Glo, 7 days). Format: cell-based. The following applies: read-out: NCI-H1417 proliferation inhibition IC50. (Cellular ATP, detected with luciferase, serves as a proxy for viable cell number.)

Regarding `CS(=O)(=O)N1CCN(C(=O)c2cc(CN[C@@H]3C[C@H]3c3ccc(F)cc3)nc(Oc3ccc(-n4cccn4)cc3)n2)CC1` [Example 251], the IC50 is 600 nM.
